Among the data in paper PMC10359466, “Identification of a small-molecule inhibitor that selectively blocks DNA-binding by Trypanosoma brucei replication protein A1” (Nature Communications, 2023) are Kd values, retold here.

For the assay, the target named is 5´Cy5-dT32 ssDNA. Nature of the assay: MST ssDNA-binding assay, dT32. The conditions noted are these: 10 nM 5´Cy5-dT32, MST, one site binding total.

With “HsRPA complex: recombinant human RPA complex (6xHis-RPA1, RPA2, RPA3)”, the affinity, expressed as Kd, was 15.8 nM.
